According to paper PMC4562733 (International Journal of Nanomedicine, 2015):

Key:
normal (Kunming) mice = experiment: Acute toxicity; details: 80 to 320 mg/kg, tail vein, n=10 per group
[1] = Release of free PTX in human plasma, HPLC; assay type: in vitro ADME; details: 37°C, 4 hours
In short: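 Test conjugate was dissolved at 5 mg per 2.5 mL in PBS pH 7.4 or human plasma and held at 37°C for up to 12 hours. Aliquots were drawn at set times and free PTX was extracted into ethyl acetate. Free PTX was quantified by reverse-phase C18 HPLC at 1 mL per minute and 30°C, with UV detection at 227 nm.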

MCF-7 tumors = experiment: In vivo antitumor activity; design: species or system nude mice; details: MCF-7-bearing mice
In short: (§1)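 Tumor cells implanted in the upper right axillary fossa of nude mice; treatment began when tumors reached 0.2–0.5 cm diameter. Mice were randomized to four groups (n=5): PBS pH 7.4 control, free paclitaxel, or test conjugates, each at 5 mg/kg in 0.2 mL. Dosing was by tail vein every 3 days, five injections over 15 days. Tumor volume and body weight were recorded daily; values are mean ± SD.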

A549 tumors = experiment: In vivo antitumor activity; design: species or system nude mice; details: A549-bearing mice
In short: as §1

**Q.** Which results are given for “folic acid-fluorescein-5(6)-isothiocyanate-arginine-paclitaxel [FA-FITC-Arg-PTX]”?
**A.** survival rate (normal (Kunming) mice): maintained their original survival rates; free PTX released [1]: 56.72%; body weight change during treatment (MCF-7 tumors): gradual increase; decrease of body weight, of original weight (A549 tumors): about 2%
